Reference: US20070276049A1 (priority 2003, published 2007)
Several values for one entry are separate records, joined by “and”; a condition that tells them apart may be missing. Identical values can stand only once.

What was measured:
[1] = tested on: V428 human vaginal epithelial cells

CCCCCCCCCCCC(=O)OCC(O)CO (centres unmarked) [GML, glycerol monolaurate]
Average number of inclusion bodies per field, With GML (Chlamydia trachomatis): None
inclusions in wells to which GML was added (Chlamydia trachomatis): no inclusions were seen
GML concentration at which S. aureus MN8 did not grow (S. aureus MN8): 300 µg/mL
RNA synthesis in epithelial cells [1]: complete inhibition
Counts/min (incorporation of 3H-thymidine into DNA) (B cells): 5,500 Counts/min and 10,000 Counts/min
